The assay addresses zanidatamab precursor (human). Put plainly: SPR; zani precursor captured on immobilised goat anti-human Fc (CM5, Biacore T200), HER2 ECD 3.75-60 nM flowed; single-cycle, 1:1 Langmuir fit; apparent; capture/MW 1.030824782 RU/kDa. A general note: Surface plasmon resonance follows binding to a sensor surface in real time, without labels.

Chains of the proteins cited; added tags and fusions are not shown. A line that says so, or that is headed by a name, gives the form on record, which may keep a tag or linker.
zanidatamab precursor (human), light, as listed by the source, chain 2 of 2: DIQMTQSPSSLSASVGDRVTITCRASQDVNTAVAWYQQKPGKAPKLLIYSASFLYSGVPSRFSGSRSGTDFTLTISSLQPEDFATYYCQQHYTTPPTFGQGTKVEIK

As to “Recombinant human HER2 ECD (from UniProt P04626 23-652) (domain or fragment)”, the Kd was 0.578 nM.
